The values below come from patent EP4665839B1, “CELL CULTURE MEDIA” (dated 2026).

The data set has as its system recombinant mAb. As to the kind of experiment: Norvaline incorporation: middle-up mass analysis and peptide mapping. Particulars: mAb produced with CCM supplemented with N-L-NVa-Tyr HCl. The text has this:
Apostol et al. reported that Norvaline can be incorporated instead of leucine in the α and β subunits of recombinant human hemoglobin expressed in Escherichia coli (Apostol, I., Levine, J., Lippincott, J., Leach, J., Hess, E., Glascock, C. B., Weickert, M. J., & Blackmore, R. (1997). Incorporation of norvaline at leucine positions in recombinant human hemoglobin expressed in Escherichia coli. Journal of Biological Chemistry, 272(46), 28980-28988. https://doi.org/10.1074/jbc.272.46.28980). […] Putative incorporation of NVa instead of Leu can be studied via intact mass analysis and peptide mapping.
Molecular masses of mAb light and heavy chains obtained after reduction were measured using an UHPLC (Vanquish Horizon UHPLC, Thermo Fisher Scientific) coupled with an ESI-Q-ToF mass spectrometer (Impact II, Bruker Daltonics). Briefly, 500 ng of samples were loaded on an Reversed-Phase column (1000Å, 5µm, 2.1x50mm, Agilent) thermostated at 80°C with a flow rate of 0.6 mL/min and eluted with the gradient presented in Table 2. LC-MS gradient used for intact mass analysis. MS analysis was performed using the Impact II mass spectrometer equipped with an ESI source (Bruker Daltonics). MS acquisition was performed in positive mode with end plate offset and capillary voltages set at 500 and 4500 V, respectively. Nebulizer and dry gas were set at 3.0 bar and 12.0 L/min, respectively. […]

`CCC[C@H](N)C(=O)O`: the “incorporation of L-norvaline instead of Leucine” value is reported as “No incorporation”.
